Data: ChEMBL document CHEMBL1134792, “Antimitotic antitumor agents: synthesis, structure-activity relationships, and biological characterization of N-aryl-N'-(2-chloroethyl)ureas as new selective alkylating agents” (J Med Chem, 2001)

What was measured:
Format in all cases: functional, cell-based
P388 = experiment: Dose required to inhibit cell growth was determined against P388D1 cell line of murine lymphocytotic leukemia; NA= Not active represents IC50 >400 uM; conditions: Mus musculus
How it was run: (§1)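 Alamar Blue growth-inhibition assay. Cells ((1–5) × 10³ per well) were preincubated for 24 h, then exposed to increasing drug concentrations for 72 h at 37 °C. Alamar Blue (20%) was added and fluorescence read at ex 485 / em 590 nm. IC50 is the dose inhibiting growth by 50%. Means of ≥3 independent determinations.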

LoVo = experiment: Dose required to inhibit cell growth was determined against LoVo cell line of human adenocarcinoma; NA= Not active represents IC50 >400 uM; how it was run: as §1
MDA-MB-231 = experiment: Dose required to inhibit cell growth was determined against MDA-MB-231 cell line of human non-hormone dependent breast carcinoma; NA= Not active represents IC50 >400 uM; how it was run: as §1

Measured: NA

O=c1oc(NCCCl)nc2cc(Cl)ccc12
inactive: P388 | LoVo | MDA-MB-231

Active and inactive are the calls of the source.
